Data on 13 compounds can be found in patent publication US20240360179A1, “STAPLED PEPTIDES AND METHODS THEREOF” (FOG PHARMACEUTICALS, INC., priority 2021, published 2024).

Amino acid sequences for entries named in this document (tags omitted).
UniProt P35222, whole entry: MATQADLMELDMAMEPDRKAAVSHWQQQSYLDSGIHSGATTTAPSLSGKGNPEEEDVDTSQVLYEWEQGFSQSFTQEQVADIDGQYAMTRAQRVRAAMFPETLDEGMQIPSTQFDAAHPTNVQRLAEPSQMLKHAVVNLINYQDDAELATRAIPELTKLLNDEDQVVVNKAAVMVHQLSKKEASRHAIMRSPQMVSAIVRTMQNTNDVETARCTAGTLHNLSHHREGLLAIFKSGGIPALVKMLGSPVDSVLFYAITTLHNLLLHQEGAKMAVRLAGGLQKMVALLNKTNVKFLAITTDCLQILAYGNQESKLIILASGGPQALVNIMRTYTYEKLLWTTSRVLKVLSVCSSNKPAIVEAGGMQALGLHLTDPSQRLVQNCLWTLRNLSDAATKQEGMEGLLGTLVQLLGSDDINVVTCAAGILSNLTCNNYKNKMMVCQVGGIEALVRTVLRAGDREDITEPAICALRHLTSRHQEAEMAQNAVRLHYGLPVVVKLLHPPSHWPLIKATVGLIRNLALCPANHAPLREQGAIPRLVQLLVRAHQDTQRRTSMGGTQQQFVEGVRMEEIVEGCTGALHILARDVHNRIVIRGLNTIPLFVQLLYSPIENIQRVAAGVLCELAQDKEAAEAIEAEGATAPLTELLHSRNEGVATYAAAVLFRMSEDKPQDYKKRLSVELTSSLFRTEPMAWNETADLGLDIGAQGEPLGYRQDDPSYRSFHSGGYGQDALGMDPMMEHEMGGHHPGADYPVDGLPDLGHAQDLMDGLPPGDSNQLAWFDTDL

For assay [1], the target named is T1, full-length B-Catenin (Uniprot ID P35222) (Homo sapiens, UniProt P35222).
T1 construct: 10 nM full-length B-Catenin (Uniprot ID P35222)
Kind of assay: biochemical. It is filed as binding. As to conditions: beta-Catenin FP IC50 (nM), competition fluorescence polarization. For orientation: Fluorescence polarisation rises when a labelled molecule tumbles more slowly, as on binding a larger partner.

The target of assay [2] is beta-catenin/TCF4 interaction (Homo sapiens, UniProt P35222). The assay can be described thus: cell-based. Also noted: host or cells: HEK293. As to conditions: NanoBRET Abs IC50 (uM).

On to `CC(=O)N1CCC[C@]12CC=CCCCC1(CCCC=CCCCOC(=O)N3CC[C@@]4(C3)NC(=O)[C@H](CCCCNC(=O)CC[C@@H](C(=O)N[C@@H](CC(C)C)C(=O)N[C@@H](CO)C(N)=O)NC(=O)[C@H](Cc3csc5ccccc35)NC(=O)[C@H](Cc3ccccc3C(F)(F)F)NC4=O)NC(=O)[C@H](Cc3ccccc3)NC(=O)[C@H](C)NC(=O)[C@H](C)NC(=O)[C@H](Cc3cccc(C(=O)O)c3)NC(=O)[C@H](CC(=O)O)NC1=O)NC(=O)[C@H](CC(C)(C)C)NC(=O)[C@H](CC(=O)O)NC2=O` (relative stereo) [I-136, Ac-PL3-Asp-Npg-B5-Asp-3COOHF-Ala-Ala-Phe-Lys*3-PyrS2-2F3MeF-BztA-GlnR*3-Leu-Ser-NH2], for which the half-inhibitory concentration (IC50) in assay [1] is less than 50 nM; in assay [2], 1.5 to 3 µM.

For `CCCC[C@@H]1NC(=O)[C@H](Cc2cccc(C(=O)O)c2)NC(=O)[C@H](CC(=O)O)NC(=O)C2(CCCC=CCCCOC(=O)N3CC[C@@]4(C3)NC(=O)[C@H](CCCCNC(=O)CC[C@@H](C(=O)N[C@@H](CC(C)C)C(=O)N[C@@H](CO)C(N)=O)NC(=O)[C@H](Cc3csc5ccccc35)NC(=O)[C@H](Cc3ccccc3C(F)(F)F)NC4=O)NC(=O)[C@H](Cc3ccccc3)NC(=O)[C@H](C)NC1=O)CCCC=CC[C@]1(CCCN1C(C)=O)C(=O)N[C@@H](CC(=O)O)C(=O)N[C@@H](CC(C)(C)C)C(=O)N2` (relative stereo) [I-137, Ac-PL3-Asp-Npg-B5-Asp-3COOHF-nLeu-Ala-Phe-Lys*3-PyrS2-2F3MeF-BztA-GlnR*3-Leu-Ser-NH2], the IC50 is less than 50 nM in assay [1] and 1.5 to 3 µM in assay [2].

Turning to `CC(=O)N1CCC[C@]12CC=CCCCC1(CCCC=CCCCOC(=O)N3CC[C@@]4(C3)NC(=O)[C@H](CCCCNC(=O)CC[C@@H](C(=O)N[C@@H](CC(C)C)C(=O)N[C@@H](CO)C(N)=O)NC(=O)[C@H](Cc3csc5ccccc35)NC(=O)[C@H](Cc3ccccc3C(F)(F)F)NC4=O)NC(=O)[C@H](Cc3ccccc3)NC(=O)[C@H](C)NC(=O)C(C)(C)NC(=O)[C@H](Cc3cccc(C(=O)O)c3)NC(=O)[C@H](CC(=O)O)NC1=O)NC(=O)[C@H](CC(C)(C)C)NC(=O)[C@H](CC(=O)O)NC2=O` (relative stereo) [I-138, Ac-PL3-Asp-Npg-B5-Asp-3COOHF-Aib-Ala-Phe-Lys*3-PyrS2-2F3MeF-BztA-GlnR*3-Leu-Ser-NH2], the IC50 was less than 50 nM in assay [1] and 1.5 to 3 µM in assay [2].

For the compound `CC(=O)N1CCC[C@]12CC=CCCCC1(CCCC=CCCCOC(=O)N3CC[C@@]4(C3)NC(=O)[C@H](CCCCNC(=O)CC[C@@H](C(=O)N[C@@H](CC(C)C)C(=O)N[C@@H](CO)C(N)=O)NC(=O)[C@H](Cc3csc5ccccc35)NC(=O)[C@H](Cc3ccccc3C(F)(F)F)NC4=O)NC(=O)[C@H](Cc3ccccc3)NC(=O)[C@H](C)NC(=O)C3(CC3)NC(=O)[C@H](Cc3cccc(C(=O)O)c3)NC(=O)[C@H](CC(=O)O)NC1=O)NC(=O)[C@H](CC(C)(C)C)NC(=O)[C@H](CC(=O)O)NC2=O` (relative stereo) [I-139, Ac-PL3-Asp-Npg-B5-Asp-3COOHF-Cpg-Ala-Phe-Lys*3-PyrS2-2F3MeF-BztA-GlnR*3-Leu-Ser-NH2], the concentration for half-maximal inhibition (IC50) in assay [1] is less than 50 nM; in assay [2], 1.5 to 3 µM.

As for `CC(=O)N1CCC[C@]12CC=CCCCC1(CCCC=CCCCOC(=O)N3CC[C@@]4(C3)NC(=O)[C@H](CCCCNC(=O)CC[C@@H](C(=O)N[C@@H](CC(C)C)C(=O)N[C@@H](CO)C(N)=O)NC(=O)[C@H](Cc3csc5ccccc35)NC(=O)[C@H](Cc3ccccc3C(F)(F)F)NC4=O)NC(=O)[C@H](Cc3ccccc3)NC(=O)[C@H](C)NC(=O)C3(CCC3)NC(=O)[C@H](Cc3cccc(C(=O)O)c3)NC(=O)[C@H](CC(=O)O)NC1=O)NC(=O)[C@H](CC(C)(C)C)NC(=O)[C@H](CC(=O)O)NC2=O` (relative stereo) [I-140, Ac-PL3-Asp-Npg-B5-Asp-3COOHF-Cbg-Ala-Phe-Lys*3-PyrS2-2F3MeF-BztA-GlnR*3-Leu-Ser-NH2], the half-maximal inhibitory concentration (IC50) in assay [1] was less than 50 nM; in assay [2] it was less than 1.5 µM.

`CC(=O)N1CCC[C@]12CC=CCCCC1(CCCC=CCCCOC(=O)N3CC[C@@]4(C3)NC(=O)[C@H](CCCCNC(=O)CC[C@@H](C(=O)N[C@@H](CC(C)C)C(=O)N[C@@H](CO)C(N)=O)NC(=O)[C@H](Cc3csc5ccccc35)NC(=O)[C@H](Cc3ccccc3C(F)(F)F)NC4=O)NC(=O)[C@H](Cc3ccccc3)NC(=O)[C@H](C)NC(=O)C3(CCCC3)NC(=O)[C@H](Cc3cccc(C(=O)O)c3)NC(=O)[C@H](CC(=O)O)NC1=O)NC(=O)[C@H](CC(C)(C)C)NC(=O)[C@H](CC(=O)O)NC2=O` (relative stereo) [I-141, Ac-PL3-Asp-Npg-B5-Asp-3COOHF-CyLeu-Ala-Phe-Lys*3-PyrS2-2F3MeF-BztA-GlnR*3-Leu-Ser-NH2]: the 50% inhibitory concentration (IC50) in assay [1] is less than 50 nM; in assay [2], 1.5 to 3 µM.

Turning to `CC(=O)N1CCC[C@]12CC=CCCCC1(CCCC=CCCCOC(=O)N3CC[C@@]4(C3)NC(=O)[C@H](CCCCNC(=O)CC[C@@H](C(=O)N[C@@H](CC(C)C)C(=O)N[C@@H](CO)C(N)=O)NC(=O)[C@H](Cc3csc5ccccc35)NC(=O)[C@H](Cc3ccccc3C(F)(F)F)NC4=O)NC(=O)[C@H](Cc3ccccc3)NC(=O)[C@H](C)NC(=O)[C@H](C)NC(=O)[C@H](Cc3cccc(C(=O)O)c3)NC(=O)[C@H](CC(=O)O)NC1=O)NC(=O)[C@H](CC(C)(C)C)NC(=O)[C@H](CC(N)=O)NC2=O` (relative stereo) [I-142, Ac-PL3-Asn-Npg-B5-Asp-3COOHF-Ala-Ala-Phe-Lys*3-PyrS2-2F3MeF-BztA-GlnR*3-Leu-Ser-NH2], the IC50 lay within 200 to 750 nM in assay [1] and 3 to 10 µM in assay [2].

Consider `CCCC[C@@H]1NC(=O)[C@H](Cc2cccc(C(=O)O)c2)NC(=O)[C@H](CC(=O)O)NC(=O)C2(CCCC=CCCCOC(=O)N3CC[C@@]4(C3)NC(=O)[C@H](CCCCNC(=O)CC[C@@H](C(=O)N[C@@H](CC(C)C)C(=O)N[C@@H](CO)C(N)=O)NC(=O)[C@H](Cc3csc5ccccc35)NC(=O)[C@H](Cc3ccccc3C(F)(F)F)NC4=O)NC(=O)[C@H](Cc3ccccc3)NC(=O)[C@H](C)NC1=O)CCCC=CC[C@]1(CCCN1C(C)=O)C(=O)N[C@@H](CC(N)=O)C(=O)N[C@@H](CC(C)(C)C)C(=O)N2` (relative stereo) [I-143, Ac-PL3-Asn-Npg-B5-Asp-3COOHF-nLeu-Ala-Phe-Lys*3-PyrS2-2F3MeF-BztA-GlnR*3-Leu-Ser-NH2], for which the IC50 in assay [1] was 200 to 750 nM; in assay [2], more than 10 µM.

For `CC(=O)N1CCC[C@]12CC=CCCCC1(CCCC=CCCCOC(=O)N3CC[C@@]4(C3)NC(=O)[C@H](CCCCNC(=O)CC[C@@H](C(=O)N[C@@H](CC(C)C)C(=O)N[C@@H](CO)C(N)=O)NC(=O)[C@H](Cc3csc5ccccc35)NC(=O)[C@H](Cc3ccccc3C(F)(F)F)NC4=O)NC(=O)[C@H](Cc3ccccc3)NC(=O)[C@H](C)NC(=O)C(C)(C)NC(=O)[C@H](Cc3cccc(C(=O)O)c3)NC(=O)[C@H](CC(=O)O)NC1=O)NC(=O)[C@H](CC(C)(C)C)NC(=O)[C@H](CC(N)=O)NC2=O` (relative stereo) [I-144, Ac-PL3-Asn-Npg-B5-Asp-3COOHF-Aib-Ala-Phe-Lys*3-PyrS2-2F3MeF-BztA-GlnR*3-Leu-Ser-NH2], the concentration for half-maximal inhibition (IC50) in assay [1] is less than 50 nM; in assay [2], 3 to 10 µM.

Take `CC(=O)N1CCC[C@]12CC=CCCCC1(CCCC=CCCCOC(=O)N3CC[C@@]4(C3)NC(=O)[C@H](CCC(=O)NCCCC[C@@H](C(N)=O)NC(=O)[C@H](Cc3csc5ccccc35)NC(=O)[C@H](Cc3ccccc3)NC4=O)NC(=O)[C@H](Cc3ccccc3)NC(=O)[C@H](C)NC(=O)[C@H](CCCCNC(C)C)NC(=O)[C@H](CCC(N)=O)NC(=O)[C@H](CC(=O)O)NC1=O)NC(=O)[C@H](CC1CCCCC1)NC(=O)[C@H](CC(N)=O)NC2=O` (relative stereo) [I-149, Ac-PL3-Asn-Cha-B5-Asp-Gln-iPrLys-Ala-Phe-GlnR*3-PyrS2-Phe-BztA-Lys*3-NH2]: the IC50 in assay [1] was 200 to 750 nM; in assay [2], more than 10 µM.

For `CC(=O)N1CCC[C@]12CC=CCCCC1(CCCC=CCCCOC(=O)N3CC[C@@]4(C3)NC(=O)[C@H](CCC(=O)NCCCC[C@@H](C(N)=O)NC(=O)[C@H](Cc3csc5ccccc35)NC(=O)[C@H](Cc3ccsc3)NC4=O)NC(=O)[C@H](Cc3ccccc3)NC(=O)[C@H](C)NC(=O)[C@H](CCO)NC(=O)[C@H](CCC(N)=O)NC(=O)[C@H](CC(=O)O)NC1=O)NC(=O)[C@H](CC1CCCCC1)NC(=O)[C@H](CC(N)=O)NC2=O` (relative stereo) [I-151, Ac-PL3-Asn-Cha-B5-Asp-Gln-Hse-Ala-Phe-GlnR*3-PyrS2-3Thi-BztA-Lys*3-NH2], the figures for the concentration for half-maximal inhibition (IC50) in assay [1] and in assay [2] were 50 to 200 nM and more than 10 µM, respectively.

`CC(=O)N1CCC[C@]12CC=CCCCC1(CCCC=CCCCOC(=O)N3CC[C@@]4(C3)NC(=O)[C@H](CCCCNC(=O)CC[C@@H](C(=O)N[C@@H](C)C(N)=O)NC(=O)[C@H](Cc3csc5ccccc35)NC(=O)[C@H](Cc3ccsc3)NC4=O)NC(=O)[C@H](Cc3ccccc3)NC(=O)[C@H](C)NC(=O)C(C)(C)NC(=O)[C@H](Cc3cccc(C(=O)O)c3)NC(=O)[C@H](CC(=O)O)NC1=O)NC(=O)[C@H](CC(C)(C)C)NC(=O)[C@H](CC(N)=O)NC2=O` (relative stereo) [I-159, Ac-PL3-Asn-Npg-B5-Asp-3COOHF-Aib-Ala-Phe-Lys*3-PyrS2-3Thi-BztA-GlnR*3-Ala-NH2]: the figures for the IC50 in assay [1] and in assay [2] were less than 50 nM and 1.5 to 3 µM, respectively.

Turning to `CC(=O)N1CCC[C@]12CC=CCCCC1(CCCC=CCCCOC(=O)N3CC[C@@]4(C3)NC(=O)[C@H](CCCCNC(=O)CC[C@@H](C(=O)N[C@@H](C)C(N)=O)NC(=O)[C@H](Cc3csc5ccccc35)NC(=O)[C@H](Cc3ccsc3)NC4=O)NC(=O)[C@H](Cc3ccccc3)NC(=O)[C@H](C)NC(=O)C(C)(C)NC(=O)[C@H](Cc3cccc(C(=O)O)c3)NC(=O)[C@H](CC(=O)O)NC1=O)NC(=O)[C@H](CC(C)(C)C)NC(=O)[C@H](CO)NC2=O` (relative stereo) [I-160, Ac-PL3-Ser-Npg-B5-Asp-3COOHF-Aib-Ala-Phe-Lys*3-PyrS2-3Thi-BztA-GlnR*3-Ala-NH2], the values for the 50% inhibitory concentration (IC50) in assay [1] and in assay [2] were less than 50 nM and 3 to 10 µM, respectively.

Usually IC50 stands for the concentration at which inhibition is half-maximal.
